# Measured values as given in patent US10202345B2, “Substituted azaspiro(4.5)decane derivatives” (priority 2014, dated 2019).
# Sequences of proteins named here, by UniProt entry; tags and fusion partners are left off.
# UniProt P35372, whole entry: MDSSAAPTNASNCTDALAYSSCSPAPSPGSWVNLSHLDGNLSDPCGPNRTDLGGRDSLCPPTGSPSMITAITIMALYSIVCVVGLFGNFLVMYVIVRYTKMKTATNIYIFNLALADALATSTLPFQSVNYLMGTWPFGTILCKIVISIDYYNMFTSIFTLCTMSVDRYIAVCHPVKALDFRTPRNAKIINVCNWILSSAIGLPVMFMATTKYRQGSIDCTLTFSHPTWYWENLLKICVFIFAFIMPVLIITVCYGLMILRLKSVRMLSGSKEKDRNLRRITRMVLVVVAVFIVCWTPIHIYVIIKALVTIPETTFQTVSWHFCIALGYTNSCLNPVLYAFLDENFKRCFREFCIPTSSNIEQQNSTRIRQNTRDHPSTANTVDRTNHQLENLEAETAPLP
# UniProt P41146, whole entry: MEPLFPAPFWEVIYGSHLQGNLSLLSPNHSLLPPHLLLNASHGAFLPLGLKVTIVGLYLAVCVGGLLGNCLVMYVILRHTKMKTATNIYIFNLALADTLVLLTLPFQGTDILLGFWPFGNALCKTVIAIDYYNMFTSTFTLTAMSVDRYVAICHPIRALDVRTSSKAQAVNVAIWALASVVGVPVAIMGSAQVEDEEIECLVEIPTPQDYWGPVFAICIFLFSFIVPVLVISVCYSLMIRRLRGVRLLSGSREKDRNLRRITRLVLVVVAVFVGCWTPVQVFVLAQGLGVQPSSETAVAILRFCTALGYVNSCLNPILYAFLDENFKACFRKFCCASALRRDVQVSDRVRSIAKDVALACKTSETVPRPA
# Tests used:
# human μ opiate receptor = human μ opiate receptor (Homo sapiens, UniProt P35372); experiment: μ opiate receptor binding assay with [3H]-naloxone (WGA-SPA beads); settings: for Ki: read-out: Ki (μ) mean [μm], mean; for % inhibition (μ) [1 μM]: test concentration 1 μM
# ORL1 receptor = ORL1 receptor (Homo sapiens, UniProt P41146); experiment: ORL1 receptor binding assay with 3H-nociceptin/orphanin FQ (WGA-SPA beads); settings: for Ki: read-out: Ki (ORL1) mean, mean; for % inhibition (ORL1) [1 μM]: test concentration 1 μM
Structure (SMILES),Ki (human μ opiate receptor) [nM],% inhibition (μ) [1 μM] (human μ opiate receptor; 1 µM) [%],Ki (ORL1 receptor) [nM],% inhibition (ORL1) [1 μM] (ORL1 receptor; 1 µM) [%],% inhibition (μ) [1 μM] (human μ opiate receptor) [%],% inhibition (ORL1) [1 μM] (ORL1 receptor) [%]
"CN(C)C1(c2cccs2)CCC2(CC1)CC(=O)N(CC1CCC1)C2 (single isomer, unassigned) [133]",1400,32,175,47.5,–,–
"CN(C)C1(c2cccs2)CCC2(CC1)CC(=O)N(CCC1CC1)C2 (single isomer, unassigned) [131]",1180,37,220,47,–,–
CN(C)C1(C2CCCC2)CCC2(CC1)CC(=O)N(C[C@@H]1CCOC1)C2 (stereo partly shown),29,–,265,–,92,43.5
COC(C)(C)CC(=O)N1CCC2(CCC(c3ccc(F)s3)(N(C)C)CC2)C1 (stereo not shown),2.65,–,49,–,99,72
"COC1(CCN2CC3(CCC(c4ccccc4)(N(C)C)CC3)CC2=O)CCC1 (single isomer, unassigned) [185]",255,60.5,104,49,–,–
"Cc1ccc(C2(N(C)C)CCC3(CC2)CC(=O)N(CC2CCCC2)C3)s1 (single isomer, unassigned) [158]",0.54,100,0.56,94,–,–
"CCCCC1(N(C)C)CCC2(CC1)CC(=O)N(CCC1(C#N)CC1)C2 (single isomer, unassigned) [402]",38,89,510,34.5,–,–
"CN(C)C1(c2cccs2)CCC2(CC1)CC(=O)N(CCC1CCOC1)C2 (single isomer, unassigned) [140]",1250,44,235,34,–,–
CN(C)C1(c2ccccc2)CCC2(CC1)CC(=O)N(CC1CC1)C2 (stereo not shown) [172],630,35.5,83,39.5,–,–
CCCC(=O)N1CCC2(CCC(Cc3cccs3)(N(C)C)CC2)C1 (stereo not shown),64.5,–,230,–,79.5,41.5
"CN(C)C1(c2ccccc2)CCC2(CC1)CC(=O)N(CC1COC1)C2 (single isomer, unassigned) [252]",14300,37.5,300,46.5,–,–
"CNC1(c2cccs2)CCC2(CC1)CC(=O)N(CCC1CCC1)C2 (single isomer, unassigned)",1.55,–,10.1,–,99,92
"CN(C)C1(c2cccs2)CCC2(CC1)CC(=O)N(CC1CCO1)C2 (single isomer, unassigned)",30,–,16,–,94.5,80.5
CN(C)C1(c2cccs2)CCC2(CC1)CC(=O)N(C[C@@H]1CCOC1)C2 (stereo partly shown),10.6,–,12.2,–,98.5,93
"CCCCC1(N(C)C)CCC2(CC1)CC(=O)N(CCC1(C#N)CCC1)C2 (single isomer, unassigned) [403]",4120,23.5,–,6.5,–,–
CN(C)C1(c2cccs2)CCC2(CC1)CC(=O)N(CC1CC1)C2 (stereo not shown),1510,–,195,–,35.5,47.5
"CCCCC1(N(C)C)CCC2(CC1)CC(=O)N(CCC1(C#N)CC1)C2 (single isomer, unassigned) [401]",2760,23,–,0,–,–
"CN(C)C1(c2cccs2)CCC2(CC1)CC(=O)N(CCC1CC1)C2 (single isomer, unassigned) [130]",0.64,99,0.75,90.5,–,–
"CN(C)C1(c2cccs2)CCC2(CC1)CC(=O)N(CCC1COC1)C2 (single isomer, unassigned) [143]",1380,24,350,33,–,–
"COC1(CCN2CC3(CCC(c4cccs4)(N(C)C)CC3)CC2=O)CCC1 (single isomer, unassigned) [218]",–,76.5,–,50.5,–,–
"CN(C)C1(c2cccs2)CCC2(CC1)CC(=O)N(CC1CCCC1)C2 (single isomer, unassigned) [126]",1.85,99,0.88,97,–,–
"CN(C)C1(c2cccs2)CCC2(CC1)CC(=O)N(CCC(C)(C)O)C2 (single isomer, unassigned) [222]",605,62,265,46.5,–,–
CN(C)C1(c2ccccc2)CCC2(CC1)CC(=O)N(CCC1COC1)C2 (stereo not shown) [254],18.5,94,8.75,94.5,–,–
